From patent US7727998B2, “Melanin-concentrating hormone receptor antagonists containing piperidine derivatives as the active ingredient” (Banyu Pharmaceutical Co., Ltd., priority 2003, dated 2010)

Chains of the proteins cited; added tags and fusions are not shown. Lines headed by an entry give the natural chain unless they say otherwise; changes in a name come on top.
UniProt Q99705: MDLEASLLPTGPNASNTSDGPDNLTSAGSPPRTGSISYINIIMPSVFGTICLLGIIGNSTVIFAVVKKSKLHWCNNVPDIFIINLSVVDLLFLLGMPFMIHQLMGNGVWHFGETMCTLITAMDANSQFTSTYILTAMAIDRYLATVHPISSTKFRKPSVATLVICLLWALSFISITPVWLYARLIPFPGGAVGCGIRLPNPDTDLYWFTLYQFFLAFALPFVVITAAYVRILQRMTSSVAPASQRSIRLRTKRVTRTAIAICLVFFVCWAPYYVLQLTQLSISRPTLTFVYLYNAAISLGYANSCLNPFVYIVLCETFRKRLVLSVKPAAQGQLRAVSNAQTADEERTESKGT

Target: human MCH-1R (Homo sapiens, UniProt Q99705)
Experiment: MCH binding inhibition test
Settings: inhibition of specific [125I]MCH (50 pM) binding; membranes of MCH-1R expressing CHO-K1 cells; 25° C., one hour, pH 7.4
Description: Pharmacological Test Example 1
(MCH Binding Inhibition Test)
A human MCH-1R encoding cDNA sequence [FEBS Letters, Vol. 398, p. 253 (1996); Biochimica et Biophisica Acta, Vol. 1401, p. 216 (1998)] was cloned to plasmid vector pEF/mic/cyto (Invitrogen Corporation). The obtained expression vector was transfected to a host cell CHO-K1 (American Type Culture Collection) using lipofectamine plus reagent (Life Technology Inc.) to provide MCH-1R expression cells.
Membrane samples prepared from the MCH-1R expression cells were incubated with each test compound and 50 pM of [^125I]MCH (NEN Co.), in an assay buffer (50 mM Tris buffer comprising 10 mM magnesium chloride, 2 mM ethylenediamine tetraacetate, 0.01% bacitracin and 0.2% bovine serum albumin; pH 7.4) at 25° C. for an hour, followed by filtration through Glass Filter GF/C (Wattman Co.). After washing the glass filter with 50 mM Tris buffer (pH7.4) comprising 10 mM magnesium chloride, 2 mM ethylenediamine tetraacetate and 0.04% Tween-20, radiative activity on the glass filter was measured. Non-specific binding was measured in the presence of 1 μM human MCH and 50% inhibition concentration (IC50 value) of each test compound to specific [^125] MCH binding was determined.

`CN(CCCN1CCC2(CC1)OCc1ccncc12)C(=O)C(O)(c1ccc(F)nc1)c1ccc(F)c(F)c1` (stereo not shown) showed an IC50 of 1.7 nM.
